The source of these data is PubChem BioAssay AID540263 (National Center for Advancing Translational Sciences (NCATS), 2011).

The chains behind the UniProt entries cited, without tags or fusion partners.
UniProt Q14974, whole entry, looked up: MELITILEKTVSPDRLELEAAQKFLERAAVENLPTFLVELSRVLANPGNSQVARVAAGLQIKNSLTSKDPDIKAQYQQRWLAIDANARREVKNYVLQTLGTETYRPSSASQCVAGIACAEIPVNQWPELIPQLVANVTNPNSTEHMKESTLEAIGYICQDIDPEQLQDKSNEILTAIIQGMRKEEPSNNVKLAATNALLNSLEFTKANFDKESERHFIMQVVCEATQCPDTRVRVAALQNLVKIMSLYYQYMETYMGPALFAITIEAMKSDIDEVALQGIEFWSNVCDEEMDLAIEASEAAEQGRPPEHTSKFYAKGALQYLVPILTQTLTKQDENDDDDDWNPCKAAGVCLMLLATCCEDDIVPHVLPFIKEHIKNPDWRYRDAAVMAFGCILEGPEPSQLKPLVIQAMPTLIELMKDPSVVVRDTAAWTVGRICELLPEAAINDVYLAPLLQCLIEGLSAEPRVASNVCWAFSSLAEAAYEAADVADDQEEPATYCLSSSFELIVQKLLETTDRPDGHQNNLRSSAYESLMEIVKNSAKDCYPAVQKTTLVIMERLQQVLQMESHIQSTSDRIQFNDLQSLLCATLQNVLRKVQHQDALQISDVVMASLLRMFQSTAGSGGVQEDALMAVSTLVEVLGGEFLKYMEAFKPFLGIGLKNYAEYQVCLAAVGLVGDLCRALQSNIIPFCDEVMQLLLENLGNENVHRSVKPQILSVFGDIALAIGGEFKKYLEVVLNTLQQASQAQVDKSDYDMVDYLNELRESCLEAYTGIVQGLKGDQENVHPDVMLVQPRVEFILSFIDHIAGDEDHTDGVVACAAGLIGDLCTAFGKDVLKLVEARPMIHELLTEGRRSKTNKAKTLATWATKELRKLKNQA

The whole screen tested about 340,000 compounds, of which about 100 (0.029%) were called active. Not shown: some 8% with an inconclusive outcome. The sample holds actives, similar compounds and a random draw of the others, so the mix is not that of the screen. A number with no mark means an inactive call. Calls come from the whole dose curve.
Potency is the fitted concentration of half-maximal effect; tags give direction and shape of the fitted curve.

The target in this test is Importin subunit beta-1 (Homo sapiens) (UniProt Q14974). The test is described as follows: qHTS Assay for Inhibitors of Rango (Ran-regulated importin-beta cargo) - Importin beta complex formation.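 For inhibition of complex formation: 0% = DMSO wells and 100% = buffer wells lacking importin beta.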 Note: nearly all actives have a fitted effect of over 15% in size. To be noted: Rango CFP/YFP FRET sensor + importin beta, 45 min; series mostly up to 92.2 µM; inhibition of complex formation: at the top concentration. An excerpt:
NIH Molecular Libraries Probe Production Centers Network [MLPCN] NIH Chemical Genomics Center [NCGC] MLPCN Grant: R03 MH090808-01A1 Assay Submitter (PI): Petr Kalab NCGC Assay Overview: The small GTPase Ran regulates transport of macromolecules between the nucleus and the cytoplasm (nuclear transport) and has important functions in mitotic spindle assembly, nuclear envelope (NE) formation and nuclear pore complex (NPC) assembly. RanGTP gradient is thought to promote spindle assembly by providing a spatial clue to microtubule nucleation and Aurora A activation. Because the localized release and binding of importin alpha cargo relays this spatial clue to SAFs, inhibitors of the Rango - importin beta complex can then be used in further understanding their role in cell cycle specifically in mitosis progression. […] Activation of Aurora A has been linked to different types of cancer and a number of Aurora kinase inhibitors are being developed as potential canter therapeutics therefore, identified inhibitors of this complex could be developed into potential anti-mitotic probes for cancer treatment. Purified recombinant proteins Rango and importin beta were provided by the assay submitter. The assay used a fluorescence resonance energy transfer (FRET) Rango biosensor that contains the IBB of human snurportin 1 flanked by yellow fluorescent protein (EYFP) at the amino terminus and cerulean CFP10 at the carboxy terminus. […] Inhibitors will therefore be identified based on the ability to interfere with the FRET signal decrease. DMSO treated and no importin beta (buffer only) wells were used as negative and positive controls respectively. FRET readings were obtained at two time points. FRET reading prior to importin beta addition (pre-read) were used flag potential compound interference; FRET reading after importin beta addition (post-read) were used to identify inhibitors using the FRET ratio parameter.
NCGC Assay Protocol Summary: Two and a half uL/well of Rango-buffer solution (50 nM Rango, 1x PBS, 1mM DTT, 0.02% Tween-20, 0.1% BSA final concentrations) was dispensed into 1536-well assay plates (Greiner, solid black medium-binding plates) with Aurora Discovery BioRAPTR Flying Reagent Dispenser (FRD; Beckton-Dickenson). Compound solution (23 nL) was transferred to the assay plate using Kalypsys pin tool equipped with a 1536-pin tool and incubated at room temperature for 5 min followed by a FRET pre-read using the PerkinElmer Envision plate reader. Two and a half uL/well of Importin beta - buffer solution (0.125 microM importin beta, 1x PBS, 1mM DTT, 0.02% Tween-20, 0.1% BSA final concentrations) were then added and incubated at room temperature giving a final reaction volume of 5uL. After 45min FRET post-read was obtained via the Envision plate reader using the same optics and settings as the pre-read (CFP/YFP optimized dual optical module D450/D505; excitation mirror CFP 430/24 nm; and emission filters CFP 486/10 nm and YFP 530/10 nm).
(In general: qHTS replaces the single test concentration by a dilution series.)
Regarding `CC(C)=CCc1ccc(O)c(=O)cc1C(C)C`, the “inhibition of complex formation” value was -0.975%.

Take `O=C(Nc1ccc2ccccc2c1[N+](=O)[O-])c1ccccc1`: the “inhibition of complex formation” value is 3.45%.

Regarding `COc1ccc(Cl)cc1C=CC=NNC(=O)c1ccncc1`, the “inhibition of complex formation” value is 4.63%.

`CC(C)(C)OC(=O)N1CCC(C(=O)Nc2cccc(C(=O)NCCc3ccccc3)c2)CC1`: the “inhibition of complex formation” value was 1.14%.

In the case of `COC1=CC(=O)OC(C)(c2ccccc2)C1` (centres undefined), the “inhibition of complex formation” value is -1.43%.

`Cc1ccc(Nc2c(O)nc[nH]c2=O)cc1C`: the “inhibition of complex formation” value was -7.42%.

Turning to `CCCN(CC(=O)Nc1ccccc1C)C(=O)c1ccc(OCC(=O)N2CCOCC2)c(OCC)c1`, the “inhibition of complex formation” value is -0.312%.

As for `COc1ccc(-c2ccc3c(c2)[C@@H]2C[C@H](N(C)S(=O)(=O)c4ccccc4)[C@H]([C@H](C)O)C(=O)N2CC3)cc1`, the “inhibition of complex formation” value is -1.31%.

With `CC1(C)N=C(N)NC(Nc2ccc(Cl)cc2)=N1`, the “inhibition of complex formation” value was 2.24%.

In the case of `CN(C(=O)c1cccc(NC(=O)Cc2ccc(NC(=O)C3CCN(C(=O)C4CCCCC4)CC3)cc2)c1)C1CCC1`, the “inhibition of complex formation” value was -2.04%.

Turning to `CC(C)(C)c1nnc2sc(SCC(O)=C(C#N)c3nc4ccccc4[nH]3)nn2c1=O`, the “inhibition of complex formation” value was 0.14%.

Regarding `Cc1ccc(S(=O)(=O)N2CCN(C(=O)c3cc(S(=O)(=O)N4CCOCC4)ccc3F)CC2)cc1`, the “inhibition of complex formation” value was -3.27%.

As to `Cc1nn(-c2ncccn2)c2c1C(=O)CC(C)(C)C2Br` (centres undefined), the “inhibition of complex formation” value is -3.68%.

Take `CCN(CC(=O)Nc1c(F)cccc1F)C(=O)Cc1cccs1`: the “inhibition of complex formation” value was -5.32%.

As for `NC(=O)c1ccc(N2CCCC2)nc1`, the “inhibition of complex formation” value was 0.637%.

`COc1cc2[nH]c(O)c(C=O)c2cc1OC`: the “inhibition of complex formation” value was -0.216%.

`CC/C(=C\c1ccc(Cl)cc1)c1ccncc1`: the “inhibition of complex formation” value is 0.876%.

As to `COc1ccc(Cl)cc1C=CC=Nc1ccc(S(N)(=O)=O)cc1`, the “inhibition of complex formation” value is -2.29%.

As to `COc1ccc(CCNC(=O)c2ccc(NC(=O)CC3SC(N4CCCCC4)=NC3=O)cc2)cc1OC` (centres undefined), the “inhibition of complex formation” value is -3.12%.

As for `CSCCC(NC(=O)COc1ccccc1)C(=O)N1CCN(c2cccc(C(F)(F)F)c2)CC1` (centres undefined), the “inhibition of complex formation” value was 4.24%.

Regarding `CCCCN1CC(COc2ccccc2)Oc2cccc(F)c2S1(=O)=O` (centres undefined), the “inhibition of complex formation” value was 2.87%.

As for `O=C(NN=Cc1ccccc1)c1ccccc1`, the “inhibition of complex formation” value was -2.28%.

On to `O=C(Nc1c(Br)cc2c(c1Br)Cc1cc([N+](=O)[O-])ccc1-2)C(Cl)Cl`, for which the “inhibition of complex formation” value is -0.563%.

For `CC(=O)OC1CCC2C3CCC4=C(CC(F)C(=O)C4)C3CCC12C` (centres undefined), the “inhibition of complex formation” value was -1.03%.

`O=[N+]([O-])c1ccc(COc2ccccc2CN2CCOCC2)cc1`: the “inhibition of complex formation” value is 3.71%.

For the molecule `COc1cccc(CC(=NO)c2cccc(OC)c2)c1`, the “inhibition of complex formation” value was -0.088%.

Turning to `NC(=O)C1(Nc2ccc(-c3ccccc3)cc2)CCCC1`, the “inhibition of complex formation” value is 0.958%.

In the case of `O=C(O)C(=Cc1ccccc1[N+](=O)[O-])c1ccccc1`, the “inhibition of complex formation” value is -0.207%.

On to `CCOC(=O)c1ccccc1NC(=O)CSc1nc2c(sc(=S)n2CC)c(=O)[nH]1`, for which the “inhibition of complex formation” value is 0.302%.

As to `O=C(CCCCCCCC(=O)N1CCCCC1)N1CCCCC1`, the “inhibition of complex formation” value is -2.28%.

Turning to `Nc1cc2c(cc1Br)-c1ccc(F)cc1C2=O`, the “inhibition of complex formation” value was -2.11%.

For `O=C1NC(c2ccccc2)Cc2ccncc21` (centres undefined), the “inhibition of complex formation” value is 0.404%.

With `Cc1ccc(OCCNC(=O)c2cccc(S(=O)(=O)N3CCN(Cc4ccccc4)CC3)c2)cc1`, the “inhibition of complex formation” value was 3.25%.

For `O=C1CC(c2ccccc2)C(c2ccccc2)=NN1` (centres undefined), the “inhibition of complex formation” value is -1.44%.

With `Nc1ccc2c(c1)C(=Cc1cccnc1)c1ccccc1-2`, the “inhibition of complex formation” value was -0.161%.

As to `Oc1ccc(-c2nc3ccccc3nc2-c2ccc(O)cc2O)c(O)c1`, the “inhibition of complex formation” value is 1.75%.

Consider `O=C(Nc1ccccc1)Oc1cccc2cccnc12`, for which the “inhibition of complex formation” value was -0.849%.

In the case of `O=[N+]([O-])c1ccc(NS(=O)(=O)c2ccccc2)c(Cl)c1`, the “inhibition of complex formation” value was -1.29%.

In the case of `O=C(Cc1ccc(Cl)cc1)c1ccccc1`, the “inhibition of complex formation” value was 3.5%.

`O=C1C(=O)N(c2ccccc2)C(c2ccccc2)C1c1ccccc1` (centres undefined): the “inhibition of complex formation” value was 2.65%.

With `Cc1cc([N+](=O)[O-])ccc1NS(=O)(=O)c1ccccc1`, the “inhibition of complex formation” value was 2.79%.

`O=C(c1ccc2c(c1)C(=O)N(Cc1ccncc1)C2=O)N1CCN(S(=O)(=O)c2ccc(OC(F)(F)F)cc2)CC1`: the “inhibition of complex formation” value was 5.12%.

For `O=S(=O)(Cc1ccc(Cl)cc1Cl)c1ccc(Cl)cc1`, the “inhibition of complex formation” value is -2.04%.

For the molecule `Cc1c(NS(=O)(=O)c2cccc(C(=O)Nc3ccc(SC(F)F)cc3)c2)c(=O)n(-c2ccccc2)n1C`, the “inhibition of complex formation” value was -1.93%.

For the molecule `C[n+]1cccc(C(=O)O)c1`, the “inhibition of complex formation” value was 8.24%.

In the case of `CCCCN(C(=O)c1cccc(N2C(=O)c3ccccc3C2=O)c1)c1c(N)n(CCCC)c(=O)[nH]c1=O`, the “inhibition of complex formation” value is -5.63%.

For `CSCCC(NS(=O)(=O)c1ccc(C)cc1)C(=O)N(C)CC(=O)Nc1ccccc1Br` (centres undefined), the “inhibition of complex formation” value is -2.58%.

As to `COc1ccccc1NC(=O)N(O)C1(C#N)CCCCC1`, the “inhibition of complex formation” value is 6.65%.

As to `O=C(Nc1c[nH]c(=O)[nH]c1=O)OCc1ccccc1`, the “inhibition of complex formation” value was -3.52%.

`COc1cc2c(cc1OC)C(Cc1cc(OC)c(OC)cc1[N+](=O)[O-])=NCC2`: the “inhibition of complex formation” value was -4.04%.

In the case of `CN(O)C(=S)c1ccccc1`, the “inhibition of complex formation” value is 0.436%.

In the case of `Cc1ccc(S(=O)(=O)c2cc3c(=O)n4cccc(C)c4nc3n(CCc3ccccc3)c2=N)cc1C`, the “inhibition of complex formation” value was -0.419%.

For the molecule `O=C1OC(Oc2ccc(Br)cc2)(c2ccccc2)c2ccccc21` (centres undefined), the “inhibition of complex formation” value is 4.41%.

For the molecule `N#CC1(Nc2ccc(-c3ccc(Cl)cc3)cc2)CCCC1`, the “inhibition of complex formation” value is -0.935%.

Take `C#CCOCCOCCOCCNc1nc(N2CCN(C(=O)Cn3cc(CCO)nn3)CC2)nc(N2CCN(C(=O)[C@H](CCCCN)n3cc(CCCC)nn3)CC2)n1`: the “inhibition of complex formation” value was 2.5%.

As for `O=S1(=O)CCOC[C@H](Cc2ccccc2)N1Cc1ccccc1Br`, the “inhibition of complex formation” value was 1.72%.

`CC(C)(C)Nc1nc(-c2ccccn2)nc2ccccc12`: the Potency is 58 µM (active).

Consider `Cc1nc2ccccc2c(C(=O)O)c1-c1ccccn1`, for which the “inhibition of complex formation” value is -3.52%.

For `Cc1ccc(Oc2nc(-c3ccccn3)nc3ccccc23)cc1`, the “inhibition of complex formation” value was 1.95%.

Take `COc1cc2c(cc1CNC[C@H]1O[C@@H](n3cnc(C(N)=O)n3)[C@H](O)[C@@H]1O)OCO2`: the “inhibition of complex formation” value was 0.344%.

In the case of `NC1=NOC(=O)C1C1CCCCC1` (centres undefined), the “inhibition of complex formation” value is 2.74%.

In the case of `NC(=S)NN=C1CCCC(C(F)(F)F)C1` (centres undefined), the “inhibition of complex formation” value was 0.299%.

For the molecule `O=C(OC12CC3CC(CC(C3)C1)C2)c1ccc(NCc2cc(O)ccc2O)cc1`, the “inhibition of complex formation” value is 0.607%.

As to `O=C(O)c1ccc([N+](=O)[O-])cc1Sc1ccsc1`, the “inhibition of complex formation” value is -1.6%.

For `CN(CCc1ccccc1)C(=O)c1cccc(NC(=O)Cc2cccc(NC(=O)C3CCCN(C(=O)C4CCC4)C3)c2)c1` (centres undefined), the “inhibition of complex formation” value was 1.49%.

Take `CN(C(=O)c1cccc(NC(=O)Cc2ccc(NC(=O)C3CCCN(C(=O)C4CC4)C3)cc2)c1)C1CC1` (centres undefined): the “inhibition of complex formation” value was 5.33%.

As for `C=CCN1C=C(C(=O)c2ccccc2)C(=O)CC1`, the “inhibition of complex formation” value is 1.13%.

Consider `Cc1nc(Nc2ccccc2C)c2cnn(C)c2n1`, for which the “inhibition of complex formation” value was 0.799%.

As for `O=C(c1cccc(S(=O)(=O)N2CCCCCC2)c1)N1CCN(Cc2ccccc2)CC1`, the “inhibition of complex formation” value is 2.11%.
